Experimental data: US20090036389A1, “Polymeric Micelle Formulations of Hydrophobic Compounds and Methods” (priority 2002, published 2009)

Tested on: bovine erythrocytes

How did the “hemolysis at 9 h” value turn out when “poly(ethylene glycol)-block-poly(N-hexyl-L-aspartamide)-stearic acid ester [PEG-b-p(HASA), 91%]” was run?
Its value is “very little hemolysis”.

What about the “hemolysis at 16 h” value of the same substance?
Its value is 20%.

And the “hemolysis at 24 h” value?
The value was “approximately 40%”.

What about the onset of hemolysis of the same substance?
Its onset of hemolysis is “more rapid”.

What about the “time-dependent hemolytic profile / onset of hemolysis” value of the same substance?
Its value is “delayed compared to equivalent concentrations of free AmB”.

For “poly(ethylene glycol)-block-poly(N-hexyl-L-aspartamide)-stearic acid ester [PEG-b-p(HASA), 46%]”, which “hemolysis by polymer micelles in the absence of AmB” value is on record?
The value was “no hemolysis was observed”.
